Measured values published in PubChem BioAssay (NCATS).
Only a part is listed here, and it is no random draw. Records with an inconclusive call do not appear. The source made the active and inactive calls. Calls follow the shape of the dose curve; as a rule, active = well fitted cell-killing curve with a large enough effect; inconclusive = small, poorly fitted or top-dose-only effect; inactive = flat fitted curve, though single readings scatter.

What was measured:
[1] = Cell Viability - LYMP2-006 (AID 978); conditions: LYMP2-006 lymphoblastoid cell viability, qHTS; at 92.2 µM (top of the series); also: % is scaled to controls: 0 for no effect and ±100 for the full control effect; nearly all actives have a fitted effect of over 60% in size
Excerpt: (§1) NIH Chemical Genomics Center [NCGC]
(§2) NIH Molecular Libraries Screening Centers Network [MLSCN]
(§3) National Institutes of Environmental Health Sciences [NIEHS]
(§4) National Toxicology Program [NTP]
(§5) We have developed a 1536-well cell-based assay for quantitative high throughput screening (qHTS) against a number of cell lines to determine in vitro cytotoxicity of small molecules. This particular assay uses a human lymphoblastoid cell line (LYMP2-006) purchased from Coriell Institute for Medical Research.
(§6) NCGC Assay Protocol Summary:
(§7) The CellTiter-Glo luminescent cell viability assay (Promega) is a homogeneous method to measure the number of viable cells in culture. The end point readout of this assay is based on quantitation of intracellular ATP, an indicator of metabolic activity, using the luciferase reaction. […]
(§8) Using the CellTiter-Glo luminescent cell viability assay, the amount of cellular ATP was measured in the lymphoblastoid cell line with complete culture medium following compound treatment for 24 hours. […] Library compounds were measured for their ability to cause acute toxicity in the cell line, as reflected by a decrease in intracellular ATP levels, in a concentration-dependent manner. […] AC50 values were determined from concentration-response data modeled with the standard Hill equation. […]
(§9) 8. Detection; Luminescence; Viewlux plate reader […]

[2] = Cell Viability - LYMP2-007 (AID 979); conditions: LYMP2-007 lymphoblastoid cell viability; at 92.2 µM (top of the series);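 also: cells exposed to compound for 24 h before reading; 0% = DMSO only and the negative end = 92 µM tetraoctylammonium bromide; nearly all actives have a fitted effect of over 60% in size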
In short: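 Luminescent ATP signal (CellTiter-Glo) serves as the viability read-out after 24 hr compound treatment of lymphoblastoid cells in complete medium at 37 C. Concentration-response data were fitted to the Hill equation to give AC50 values.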

[3] = Cell Viability - LYMP2-008 (AID 980); conditions: LYMP2-008 lymphoblastoid cell viability, qHTS; at 92.2 µM (top of the series); also: % is scaled to controls: 0 for no effect and ±100 for the full control effect; nearly all actives have a fitted effect of over 60% in size
In short: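 qHTS, human lymphoblastoid line, 2500 cells/well; 5 hr preincubation, 24 hr compound, 37 C. CellTiter-Glo ATP luminescence. AC50 via Hill equation. Tetraoctylammonium bromide positive control.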

[4] = Cell Viability - LYMP2-010 (AID 981); conditions: LYMP2-010 lymphoblastoid cell viability, qHTS; at 92.2 µM (top of the series); also: % is scaled to controls: 0 for no effect and ±100 for the full control effect; nearly all actives have a fitted effect of over 55% in size
In short: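 Luminescent ATP signal (CellTiter-Glo) served as the viability read-out. Cells of the human lymphoblastoid line were treated with compound over a concentration range for 24 hours at 37 C, and AC50 values came from Hill-equation modeling.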

[5] = Cell Viability - LYMP2-012 (AID 982); conditions: LYMP2-012 lymphoblastoid cell viability qHTS; at 92.2 µM (top of the series);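 also: cellular ATP by luciferase luminescence where a drop means cytotoxicity; cells exposed to compound for one day before reading; 0% = DMSO only and full loss = 92 µM tetraoctylammonium bromide; nearly all actives have a fitted effect of over 55% in size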
Excerpt: as §1, §2, §3, §4
as §5, with “(LYMP2-012)” for “(LYMP2-006)”
as §6, §7, §8, §9

[6] = Cell Viability - LYMP2-014 (AID 983); conditions: LYMP2-014 lymphoblastoid cells, viability qHTS; at 92.2 µM (top of the series);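 also: plate controls were DMSO only for no effect and 92 µM tetraoctylammonium bromide for full effect; nearly all actives have a fitted effect of over 50% in size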
Excerpt: as §1, §2, §3, §4
as §5, with “(LYMP2-014)” for “(LYMP2-006)”
as §6, §7, §8, §9

[7] = Cell Viability - LYMP2-016 (AID 984); conditions: LYMP2-016 lymphoblastoid cell viability, qHTS; at 92.2 µM (top of the series); also: % is scaled to controls: 0 for no effect and ±100 for the full control effect; nearly all actives have a fitted effect of over 55% in size
In short: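 Cytotoxicity was scored by luminescent ATP content (CellTiter-Glo) after 24 h compound exposure at 37 C of a human lymphoblastoid line at 2500 cells/well. Concentration-response data were fitted to the Hill equation for AC50.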

[8] = Cell Viability - LYMP2-018 (AID 985); conditions: LYMP2-018 lymphoblastoid cells, viability (qHTS); at 92.2 µM (top of the series);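 also: compound exposure lasted 24 hr at 37 °C; plate controls were DMSO only for no effect and tetraoctylammonium bromide at 92 µM for full effect; nearly all actives have a fitted effect of over 50% in size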
In short: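 Luminescent ATP signal (CellTiter-Glo, read after 30 min at room temperature) reports viable cells after 24 hr compound treatment at 37 C. Concentration-response data were fitted to the standard Hill equation for AC50.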

[9] = Cell Viability - LYMP2-020 (AID 986); conditions: LYMP2-020 lymphoma cell viability, qHTS; at 92.2 µM (top of the series);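 also: plate controls were DMSO only for no effect and tetraoctylammonium bromide at 92 µM for full effect; nearly all actives have a fitted effect of over 55% in size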
In short: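 Luminescent ATP signal (CellTiter-Glo, 30 min at room temperature) is the read-out after 24 h compound treatment of lymphoblastoid cells at 37 C. AC50 values come from Hill-equation fits across concentrations.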

[10] = Cell Viability - LYMP2-022 (AID 987); conditions: LYMP2-022 lymphoblastoid cell viability; at 92.2 µM (top of the series)
In short: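 qHTS: human lymphoblastoid cells 2500/well; 5 hr 37 C; cpd added; 24 hr 37 C; CellTiter-Glo, 30 min RT; luminescence. AC50 via Hill fit; tetraoctylammonium bromide positive ctrl.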

ClCCOP(OCCCl)OCCCl
inactive: activity change, negative = cytotoxicity [1] 1.78% | activity change, negative = cytotoxicity [2] -9.43% | activity change, negative = cytotoxicity [3] -7.04% | activity, negative = cytotoxicity [4] -16% | activity change, negative = cytotoxicity [5] -19.1% | activity change, negative = cytotoxicity [6] -2.48% | activity change, negative = cytotoxicity [7] -4.48% | activity change, negative = cytotoxicity [8] -0.286% | activity change, negative = viability loss [9] -3.47% | viability change, negative = cytotoxic [10] -13.9%

CCOP(=O)(Cl)Cl
inactive: activity change, negative = cytotoxicity [1] -3.2% | activity change, negative = cytotoxicity [2] -0.39% | activity change, negative = cytotoxicity [3] -11.8% | activity, negative = cytotoxicity [4] -20.6% | activity change, negative = cytotoxicity [5] -22% | activity change, negative = cytotoxicity [6] -7.25% | activity change, negative = cytotoxicity [7] -1.47% | activity change, negative = cytotoxicity [8] -8.97% | activity change, negative = viability loss [9] 3.54% | viability change, negative = cytotoxic [10] -0.109%
